Assay results taken from US12226477B2, “Methods for preparing complex for enhancing immune response” (priority 2018, dated 2025).

Tested on: influenza virus subtype A mice-lung adaptive strain FM1
Settings: mouse, in vivo

SMILES: NC(=O)c1ncn([C@@H]2O[C@H](CO)[C@@H](O)[C@H]2O)n1 [Ribavirin positive control, Ribavirin]
- Death rate %: 43%
